# Laboratory results taken from patent US8183001B2 (priority 2006, dated 2012).
# Amino acid sequences for entries named in this document (tags omitted).
# UniProt G5EE10, entry or part of it: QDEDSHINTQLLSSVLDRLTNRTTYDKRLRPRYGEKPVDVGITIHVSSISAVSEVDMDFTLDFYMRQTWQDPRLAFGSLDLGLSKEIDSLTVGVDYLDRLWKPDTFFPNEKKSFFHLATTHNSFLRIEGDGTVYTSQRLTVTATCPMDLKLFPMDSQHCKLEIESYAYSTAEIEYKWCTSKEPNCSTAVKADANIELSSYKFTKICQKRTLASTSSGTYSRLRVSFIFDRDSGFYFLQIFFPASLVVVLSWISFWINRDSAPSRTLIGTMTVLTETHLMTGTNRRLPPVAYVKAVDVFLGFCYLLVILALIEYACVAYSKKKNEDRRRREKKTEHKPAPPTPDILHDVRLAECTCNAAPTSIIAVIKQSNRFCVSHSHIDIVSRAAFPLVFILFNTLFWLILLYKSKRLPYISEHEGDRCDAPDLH
# Read-outs that look alike come from different tables or passages of the source.
# What was measured:
# [1] = target: Y(T257F) (Caenorhabditis elegans, UniProt G5ECD3, I265S/I267V/I270L/N259Q/N305R/T257F/T269V/V261F/V273I); assay type: cell-based, C. elegans; settings: read-out: PS IC50, at EC50 GABA
# Description: (§1) Electrophysiology: Plasmids containing wild-type and mutagenized GABAA receptor subunits were linearized and transcribed in vitro using T3 RNA polymerase (mMessage mMachine T3 kit, Ambion, Austin Tex.). UNC-49B mRNA was injected into Xenopus laevis oocytes at 0.5 μg/μl either alone, or in a mixture with 0.5 μg/μl UNC-49C. […] The injection volume ranged between 27.6 nl to 50.6 nl. […] Cells were voltage clamped at −60 mV. All recordings were performed at room temperature.
# (§2) Important residues in the X segment were tested by substituting UNC-49C residues into the Y chimera. […] These divergent X segment residues were tested by mutating them from UNC-49B to UNC-49C amino acids in the Y chimera background.
# [2] = target: Y(S264A) (Caenorhabditis elegans, UniProt G5ECD3, I265S/I267V/I270L/N259Q/N305R/S264A/T269V/V261F/V273I); assay type: cell-based, C. elegans; settings: read-out: PS IC50, at EC50 GABA
# Description: as §1, §2
# [3] = target: Y(I262F/S264A) (Caenorhabditis elegans, UniProt G5ECD3, I262F/I265S/I267V/I270L/N259Q/N305R/S264A/T269V/V261F/V273I); assay type: cell-based, C. elegans; settings: read-out: PS IC50, at EC50 GABA
# Description: as §1, §2
# [4] = target: Y(T257F/S264A) (Caenorhabditis elegans, UniProt G5ECD3, I265S/I267V/I270L/N259Q/N305R/S264A/T257F/T269V/V261F/V273I); assay type: cell-based, C. elegans; settings: read-out: PS IC50, at EC50 GABA
# Description: as §1, §2
# [5] = target: Y(T257F/M258L/S264A) (Caenorhabditis elegans, UniProt G5ECD3, I265S/I267V/I270L/M258L/N259Q/N305R/S264A/T257F/T269V/V261F/V273I); assay type: cell-based, C. elegans; settings: read-out: PS IC50, at EC50 GABA
# Description: as §1, §2
# [6] = target: Y(T257F/M258L) (Caenorhabditis elegans, UniProt G5ECD3, I265S/I267V/I270L/M258L/N259Q/N305R/T257F/T269V/V261F/V273I); assay type: cell-based, C. elegans; settings: read-out: PS IC50, at EC50 GABA
# Description: as §1, §2
# [7] = target: YZ chimera (Caenorhabditis elegans, UniProt G5ECD3, A281S/E280D/I265S/I267V/I270L/L277I/N259Q/N305R/S282A/T269V/V261F/V273I); assay type: cell-based, C. elegans; settings: read-out: PS IC50, at EC50 GABA
# Description: as §1
# [8] = target: linker chimera (Caenorhabditis elegans, UniProt G5ECD3, N305R, form not given); assay type: cell-based, C. elegans; settings: read-out: PS IC50, at EC50 GABA
# Description: as §1
# [9] = target: UNC-49B homomer (Caenorhabditis elegans, UniProt G5ECD3); assay type: cell-based, C. elegans; settings: read-out: PS IC50, at EC50 GABA, estimated by extrapolating the PS dose-response curve
# Description: as §1
# [10] = target: X(V273I) (Caenorhabditis elegans, UniProt G5ECD3, I262F/M258L/N259Q/N305R/S264A/T257F/V261F/V273I); assay type: cell-based, C. elegans; settings: read-out: PS IC50, at EC50 GABA
# Description: as §1
# [11] = target: N305R (Caenorhabditis elegans, UniProt G5ECD3, N305R); assay type: cell-based, C. elegans; settings: read-out: PS IC50, at EC50 GABA
# Description: as §1
# [12] = target: X(I267V) (Caenorhabditis elegans, UniProt G5ECD3, I262F/I267V/M258L/N259Q/N305R/S264A/T257F/V261F); assay type: cell-based, C. elegans; settings: at EC50 GABA, read-out: PS IC50
# Description: as §1
# [13] = target: X(I265S) (Caenorhabditis elegans, UniProt G5ECD3, I262F/I265S/M258L/N259Q/N305R/S264A/T257F/V261F); assay type: cell-based, C. elegans; settings: read-out: PS IC50, at EC50 GABA
# Description: as §1
# [14] = target: XZ chimera (Caenorhabditis elegans, UniProt G5ECD3, A281S/E280D/I262F/L277I/M258L/N259Q/N305R/S264A/S282A/T257F/V261F); assay type: cell-based, C. elegans; settings: read-out: PS IC50, at EC50 GABA
# Description: as §1
# [15] = target: Z chimera (Caenorhabditis elegans, UniProt G5ECD3, A281S/E280D/L277I/N259Q/N305R/S282A/V261F); assay type: cell-based, C. elegans; settings: read-out: PS IC50, at EC50 GABA
# Description: as §1
# [16] = target: X(I270L) (Caenorhabditis elegans, UniProt G5ECD3, I262F/I270L/M258L/N259Q/N305R/S264A/T257F/V261F); assay type: cell-based, C. elegans; settings: read-out: PS IC50, at EC50 GABA
# Description: as §1
# [17] = target: X(I265S, Q259N) (Caenorhabditis elegans, UniProt G5ECD3, I262F/I265S/M258L/N305R/S264A/T257F/V261F); assay type: cell-based, C. elegans; settings: read-out: PS IC50, at EC50 GABA
# Description: as §1
# [18] = target: UNC-49B-PS7 (Caenorhabditis elegans, UniProt G5ECD3, I262F/I265S/M258L/N259Q/N305R/S264A/T257F); assay type: cell-based, C. elegans; settings: read-out: PS IC50, at EC50 GABA
# Description: as §1
# [19] = target: X(T269V) (Caenorhabditis elegans, UniProt G5ECD3, I262F/M258L/N259Q/N305R/S264A/T257F/T269V/V261F); assay type: cell-based, C. elegans; settings: read-out: PS IC50, at EC50 GABA
# Description: as §1
# [20] = target: Y chimera (Caenorhabditis elegans, UniProt G5ECD3, I265S/I267V/I270L/N259Q/N305R/T269V/V261F/V273I); assay type: cell-based, C. elegans; settings: read-out: PS IC50, at EC50 GABA
# Description: as §1
# [21] = target: XY chimera (Caenorhabditis elegans, UniProt G5ECD3, I262F/I265S/I267V/I270L/M258L/N259Q/N305R/S264A/T257F/T269V/V261F/V273I); assay type: cell-based, C. elegans; settings: read-out: PS IC50, at EC50 GABA
# Description: as §1
# [22] = target: X chimera (Caenorhabditis elegans, UniProt G5ECD3, I262F/M258L/N259Q/N305R/S264A/T257F/V261F); assay type: cell-based, C. elegans; settings: read-out: PS IC50, at EC50 GABA
# Description: as §1
# [23] = target: QF-R (Caenorhabditis elegans, UniProt G5ECD3, N259Q/N305R/V261F); assay type: cell-based, C. elegans; settings: read-out: PS IC50, at EC50 GABA
# Description: as §1
# The conserved residues were tested in the UNC-49C M1 domain in a similar way. […] To test the importance of these conserved residues, they were substituted into an UNC-49B subunit with the linker mutation N305R to create the ‘QF-R’ subunit (FIG. 3c).
# [24] = target: T1, Y(M258L/S264A) (Caenorhabditis elegans, UniProt G5ECD3, I265S/I267V/I270L/M258L/N259Q/N305R/S264A/T269V/V261F/V273I); assay type: cell-based, C. elegans
# T1 sequence (G5ECD3 23-506 M258L/N259Q/V261F/S264A/I265S/I267V/T269V/I270L/V273I/N305R): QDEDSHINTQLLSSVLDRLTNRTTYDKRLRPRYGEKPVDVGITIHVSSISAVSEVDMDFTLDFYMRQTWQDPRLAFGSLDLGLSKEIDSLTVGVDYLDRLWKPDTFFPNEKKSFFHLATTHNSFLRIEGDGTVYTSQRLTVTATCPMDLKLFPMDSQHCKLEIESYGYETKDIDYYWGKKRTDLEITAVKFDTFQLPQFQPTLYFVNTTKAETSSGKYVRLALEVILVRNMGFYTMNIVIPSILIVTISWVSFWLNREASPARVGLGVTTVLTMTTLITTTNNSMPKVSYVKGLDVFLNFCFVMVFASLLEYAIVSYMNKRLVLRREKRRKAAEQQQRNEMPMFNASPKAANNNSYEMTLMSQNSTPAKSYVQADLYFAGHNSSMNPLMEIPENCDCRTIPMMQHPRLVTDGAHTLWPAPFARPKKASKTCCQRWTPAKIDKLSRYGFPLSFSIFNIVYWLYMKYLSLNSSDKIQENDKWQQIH
# Description: as §1
# (§3) Error bars in the figures are standard error of the mean. All drugs were obtained from Sigma (St. Louis). […] Picrotoxin was prepared as a 100 mM stock in DMSO.
# as §2
# [25] = target: T2, Y(M258L) (Caenorhabditis elegans, UniProt G5ECD3, I265S/I267V/I270L/M258L/N259Q/N305R/T269V/V261F/V273I); assay type: cell-based, C. elegans
# T2 sequence (G5ECD3 23-506 M258L/N259Q/V261F/I265S/I267V/T269V/I270L/V273I/N305R): T1 sequence (G5ECD3 23-506 M258L/N259Q/V261F/S264A/I265S/I267V/T269V/I270L/V273I/N305R)
# Description: as §1, §3, §2
# [26] = target: UNC-49B/C heteromer (Caenorhabditis elegans, UniProt G5ECD3+G5EE10); assay type: cell-based; settings: read-out: PS IC50, at EC50 GABA
# Description: as §1
substance,measurement,setting,value
pregnenolone sulfate [PS],IC50,[1],18.6 ± 0.9 µM
same,IC50,[2],88.7 ± 2.9 µM
same,IC50,[3],97.6 ± 1.9 µM
same,IC50,[4],10.6 ± 1.9 µM
same,IC50,[5],44.4 ± 4.8 µM
same,IC50,[6],41.5 ± 3 µM
same,IC50,[7],84.4 ± 13.7 µM
same,IC50,[8],44.9 ± 7 µM
same,IC50,[9],191 µM
same,IC50,[10],11.6 ± 0.5 µM
same,IC50,[11],51 ± 4.5 µM
same,IC50,[12],17.9 ± 1.4 µM
same,IC50,[13],3.43 ± 0.6 µM
same,IC50,[14],14.4 ± 1.7 µM
same,IC50,[15],9.3 ± 0.6 µM
same,IC50,[16],11.5 ± 0.5 µM
same,IC50,[17],7.7 ± 0.3 µM
same,IC50,[18],3.3 ± 0.1 µM
same,IC50,[19],12.4 ± 1.9 µM
same,IC50,[20],90.8 ± 0.5 µM
same,IC50,[21],3.7 ± 0.5 µM
same,IC50,[22],12.8 ± 0.3 µM
same,IC50,[23],24.7 ± 4.7 µM
same,EC50,"[24]; read-out: EC50, half maximal enhancing concentration of PS (biphasic fit), M258L/S264A mutant, median of 1000 bootstrap trials",2.4 µM
same,IC50,"[24]; read-out: IC50, half maximal inhibitory concentration of PS (biphasic fit), M258L/S264A mutant, median of 1000 bootstrap trials",52.6 µM
same,IC50,"[24]; read-out: PS IC50, Y(M258L/S264A), at EC50 GABA, biphasic",100 µM
same,EC50,"[25]; read-out: EC50, half maximal enhancing concentration of PS (biphasic fit), M258L mutant, median of 1000 bootstrap trials",3.95 µM
same,IC50,"[25]; read-out: IC50, half maximal inhibitory concentration of PS (biphasic fit), M258L mutant, median of 1000 bootstrap trials",45.3 µM
same,IC50,"[25]; read-out: PS IC50, Y(M258L), at EC50 GABA, biphasic",100 µM
same,IC50,[26],2.3 µM
